Screens as filed in PubChem.
Rango-impB inh = qHTS Assay for Inhibitors of Rango (Ran-regulated importin-beta cargo) - Importin beta complex formation. Importin subunit beta-1 (Homo sapiens), Q14974. 340,000 tested, 0.031% active. Rango CFP/YFP FRET sensor + importin beta, 45 min. Potency, µM (top dose mostly 92.2 µM); further: nearly all actives have a fitted effect of over 15% in size
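Inhibition scored from the CFP 486 nm/YFP 530 nm FRET ratio 45 min after adding 0.125 microM importin beta to 50 nM Rango biosensor preincubated 5 min with compound (room temperature, PBS with DTT, Tween-20, BSA). No-importin wells as positive control.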
CCT modulator = High-Throughput Screening for Modulators of Cytosolic Chaperonin Activity; activity change, % (no concentration beside the values), hits read low; purified chaperonin ATPase assay, HTRF ADP detection, 30 min; 360,000 tested, 0.3% active; in the data active means activity change below about -30%
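TRiC (40 or 20 nM final, by batch activity) in 30 mM Tris pH 7.4, 100 mM KCl, 5 mM MgCl2, 1 mM DTT was treated with compound at 76 uM single dose, then 10 uM ATP, 30 min at 37 °C. ADP was read by HTRF Transcreener.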
Mm-Cpn inhibitor = Inhibitors of TCP-1 ring complex (TRiC) of Methanococcus maripaludis (MmCpn): qHTS | purified Mm-Cpn ATPase, ADP Transcreener TR-FRET | Potency, µM (doses to about 76.9 µM), actives largely listed as inhibitors | AID 504842, 2011 | 330,000 tested, 0.031% active | Chaperonin Mm-Cpn (Methanococcus maripaludis); active means well fitted inhibition curve with a large enough effect; inconclusive means small, poorly fitted or top-dose-only effect; further: nearly all actives have a fitted effect of over 80% in size
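25 nM Mm-CPN + cpd, 10 min 37°C; + 10 uM ATP, 30 min 37°C; buffer 30 mM Tris pH 7.4, 100 mM KCl, 5 mM MgCl2, 1 mM DTT; Transcreener ADP HTRF detection 30 min RT.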
Rango release inh = qHTS Assay for Inhibitors of RanGTP induced Rango (Ran-regulated importin-beta cargo) - Importin beta complex dissociation | Potency, µM (doses to about 46.1 µM) | 340,000 tested, 0.071% active | Biochemical FRET Rango-importin beta, RanGTP-induced dissociation | Snurportin-1 (Homo sapiens) + GTP-binding nuclear protein Ran (Homo sapiens) + Importin …; further: nearly all actives have a fitted effect of over 45% in size
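FRET read at 45 min, room temperature: inhibitors block the CFP/YFP signal rise when RanGTP (0.6 uM Ran, 2 mM GTP, 0.2 uM RCC1) frees Rango (0.1 uM) from importin beta (0.25 uM). Pre-read after 5 min compound exposure flags interference.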
Each line names hits and unclear results; the compound was inactive in the other large screens. Compounds with a hit are over-represented: about 0.39% of the library has one in this group of screens. Unless noted, the call rests on the fitted dose curve.

The chains behind the UniProt entries cited, without tags or fusion partners.
Importin subunit beta-1 (Homo sapiens), Q14974, UniProt Q14974, whole entry, looked up: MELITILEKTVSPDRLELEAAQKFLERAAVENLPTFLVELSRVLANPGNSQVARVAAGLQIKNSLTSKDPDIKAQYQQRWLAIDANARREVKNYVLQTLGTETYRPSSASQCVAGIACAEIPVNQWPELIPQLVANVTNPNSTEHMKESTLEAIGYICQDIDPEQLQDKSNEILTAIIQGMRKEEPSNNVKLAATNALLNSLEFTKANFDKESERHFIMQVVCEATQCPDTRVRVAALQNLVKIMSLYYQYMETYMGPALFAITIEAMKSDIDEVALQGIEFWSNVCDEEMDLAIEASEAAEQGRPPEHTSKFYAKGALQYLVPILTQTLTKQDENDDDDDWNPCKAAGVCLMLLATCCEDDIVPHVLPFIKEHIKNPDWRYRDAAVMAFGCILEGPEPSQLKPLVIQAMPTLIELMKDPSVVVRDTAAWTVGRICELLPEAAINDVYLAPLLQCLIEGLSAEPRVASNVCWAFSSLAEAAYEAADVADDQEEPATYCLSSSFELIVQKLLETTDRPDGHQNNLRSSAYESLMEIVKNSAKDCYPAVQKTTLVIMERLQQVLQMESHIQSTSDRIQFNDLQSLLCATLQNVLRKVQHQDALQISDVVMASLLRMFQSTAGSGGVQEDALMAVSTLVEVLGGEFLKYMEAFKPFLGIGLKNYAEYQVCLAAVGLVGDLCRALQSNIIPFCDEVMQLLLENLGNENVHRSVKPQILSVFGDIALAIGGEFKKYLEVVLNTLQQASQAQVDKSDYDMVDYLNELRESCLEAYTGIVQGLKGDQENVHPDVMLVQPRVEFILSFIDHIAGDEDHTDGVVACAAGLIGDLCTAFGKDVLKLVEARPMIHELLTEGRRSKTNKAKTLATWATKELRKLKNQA

Cc1nc2cc(-c3ccccc3)sc2c(=O)n1N	CCT modulator -31
Cn1c(OCC2CCCO2)nc2cc(-c3ccccc3)sc2c1=O (stereo unspecified)	CCT modulator -48 (no result: Rango-impB inh, Mm-Cpn inhibitor, Rango release inh)
CCOC(=O)C1=CC[C@@H](c2ccccc2)N(S(=O)(=O)c2ccc(C)cc2)[C@H]1C#N	none (no result: Rango-impB inh, Mm-Cpn inhibitor, Rango release inh)
CCOC(=O)c1c(NC(=O)c2ccc(-n3cnnn3)cc2)sc2c1CCCC2	Rango release inh 21µM
CCOC(=O)c1c(NC(=O)c2ccc(N3C(=O)[C@@H]4[C@H](C3=O)[C@H]3C=C[C@@H]4C3)cc2)sc2c1CCCC2	none
OCc1cccc(-c2csc(C(O)c3ccco3)n2)c1 (stereo unspecified)	none (no result: Rango-impB inh, Mm-Cpn inhibitor, Rango release inh)
NC(c1csc(Nc2ccc(C(F)(F)F)cn2)n1)C1CCCCC1 (stereo unspecified)	none (no result: Rango-impB inh, Mm-Cpn inhibitor, Rango release inh)
O=[N+]([O-])c1ccc(-c2nc(-c3cccs3)c(-c3cccs3)[nH]2)cc1	Rango-impB inh 9.2µM
O=[N+]([O-])c1cccc(-c2nc(-c3cccs3)c(-c3cccs3)[nH]2)c1	none
CC(=O)Nc1ccc(S(=O)(=O)N2CCN(S(=O)(=O)c3ccccc3)CC2)cc1	none
CC(=O)Nc1ccc(S(=O)(=O)N2CCN(CC3CC4C=CC3C4)CC2)cc1 (stereo unspecified)	CCT modulator -43
Cn1c(CNC(=O)C(Cc2ccccc2)NC(=O)c2ccccc2F)cc(=O)n(C)c1=O (stereo unspecified)	none
O=C1NC(c2cccs2)Nc2sc3c(c21)CCCC3 (stereo unspecified)	CCT modulator -94
CC(C)(C)OC(=O)C[C@H]1C/C=C\C[C@H](CC(=O)N(CCO)Cc2ccccc2)C(=O)N[C@@H](Cc2ccccc2)COC1=O	none
COc1ccc2[nH]c3c(c2c1)CCNC3(C)CCc1ccc(Cl)nc1 (stereo unspecified)	CCT modulator -31
COc1cc2c(cc1OC)-c1cc(OCCN3CCOCC3)nc(=O)n1CC2	Rango-impB inh inconclusive, Rango release inh 8.2µM
CCNc1cc2n(c(=O)n1)CCc1cc(OC)c(OC)cc1-2	none
COc1ccc(OC)c(/C=C(\C)C(=O)c2c(C)cc(C)[nH]c2=O)c1	CCT modulator -42 (no result: Mm-Cpn inhibitor)
COc1ccc(/C=C(\C)C(=O)c2c(C)cc(C)[nH]c2=O)cc1	none (no result: Mm-Cpn inhibitor)
CCN(c1ccccc1)S(=O)(=O)c1ccc(C(=O)Nc2cc(C)ccn2)cc1	Rango-impB inh inconclusive
O=C(N/N=C/c1ccncc1)c1cccc(NC(=O)c2ccc(Cl)cc2)c1	CCT modulator -36
O=C(N/N=C/c1ccncc1)c1cccc(N/N=C/c2ccncc2)c1	none
O=C(N/N=C/c1ccncc1)c1sc2ccccc2c1Cl	CCT modulator -84
COc1ccc(NC(=O)c2cc3c(CO)cnc(C)c3oc2=Nc2cccc(C)c2)c(OC)c1	CCT modulator -37
COc1ccccc1NC(=O)c1cc2c(CO)cnc(C)c2oc1=Nc1ccc(OC)c(OC)c1	none
C[C@H]1COc2cccc(N3CCSCC3)c2S(=O)(=O)N1	none (no result: Rango-impB inh, Mm-Cpn inhibitor, Rango release inh)
Cc1ccc(S(=O)(=O)NCC(=O)NCc2cc(=O)n(C)c(=O)n2C)cc1C	CCT modulator -79
Cc1ccc(C(=O)n2nc(-c3ccccc3)nc2NCc2ccco2)cc1	CCT modulator -60
Oc1ccc(CNc2ccc(C(F)(F)F)cc2Cl)c2cccnc12	none (no result: Rango-impB inh, CCT modulator, Rango release inh)
COc1ccc(S(=O)(=O)N(C(=O)c2ccncc2)c2ccc3oc4c(c3c2)CCCC4)cc1	CCT modulator -42
CCCCN(c1ccccc1)S(=O)(=O)c1cccc2cccnc12	none
Oc1cc(Nc2ccc(N3CCCCC3)cc2)cc2cccnc12	none (no result: Rango-impB inh, CCT modulator, Rango release inh)
Nc1ncnc2c1ncn2CCOc1ccccc1	CCT modulator -31
Nc1ncnc2c1ncn2Cc1ccccc1	none
Cc1ccc(C)c(N(CC(=O)N2CCCC2)S(C)(=O)=O)c1	none
Cc1ccc2c(C(=O)N3CCN(c4ccccc4)CC3)cc(-c3cccnc3)nc2c1C	CCT modulator -43
OC(CN1CCN(c2cccc(Cl)c2)CC1)C(c1ccccc1)c1ccccc1 (stereo unspecified)	CCT modulator -44
Cc1cc(C)c(NC(=O)CSCc2c(C)noc2C)c(C)c1	none
Cc1ccc(NC(=O)CSCc2c(C)noc2C)cc1C	CCT modulator -44
CN(C)c1ccc(N/C=C/C(=O)C(C)(C)C)cc1	Mm-Cpn inhibitor 22µM
Cn1c(SCc2ccc(C#N)cc2Cl)nc2ccccc21	CCT modulator -36
Cc1[nH]c2ccc(C(=O)NC3CCC(C)CC3)cc2c1C (stereo unspecified)	CCT modulator -62
Cc1[nH]c2ccc(C(=O)NC3CCCC3)cc2c1C	none
c1ccc(CN2CC[C@@H](Nc3nccn4ccnc34)C2)cc1	none (no result: Rango-impB inh, Mm-Cpn inhibitor, Rango release inh)
COc1ccccc1Nc1nc(-c2c(C)[nH]c3ccccc23)cs1	Rango-impB inh inconclusive, Rango release inh 12µM
Cc1ccccc1CN(C)CC(=O)NC(C)CCc1ccccc1 (stereo unspecified)	CCT modulator -94
Cc1ccc(CC(=O)NC(C)CCc2ccccc2)cc1 (stereo unspecified)	none
CC(OC(=O)CCc1nc2ccccc2c(=O)[nH]1)C(=O)Nc1cccc(C(F)(F)F)c1 (stereo unspecified)	Rango-impB inh inconclusive
CCOC(=O)C1CCN(C(=O)COC(=O)COc2ccc(Cl)cc2)CC1	CCT modulator -30
O=C(COc1ccccc1)Nc1ccc(-c2ccc(N3CCOCC3)nn2)cc1	CCT modulator -137
CCC(=O)N1CCN=C1SCc1ccccc1Cl	CCT modulator -63
CC(=O)N1CCN=C1SCc1ccccc1Cl	none
CCc1ccc(C(C)(O)C(CN2CCOCC2)c2ccccc2)cc1 (stereo unspecified)	Mm-Cpn inhibitor inconclusive
CC(C)c1nnc(NC(=O)CCC(=O)N2CCN(Cc3ccccc3)CC2)s1	CCT modulator -43
CC(C)c1nnc(NC(=O)CCC(=O)N2CCN(c3ccc(Cl)cc3)CC2)s1	none
O/N=C/c1cc(Br)ccc1OCc1ccc(F)cc1	Rango-impB inh inconclusive, Rango release inh 16µM (no result: Mm-Cpn inhibitor)
Cc1ccccc1-c1cc2nc(Oc3ccc4c(c3)OCO4)n(C)c(=O)c2s1	none (no result: Rango-impB inh, Mm-Cpn inhibitor, Rango release inh)
CC(C)(C)OC(=O)NCCCCCNC(=O)c1ncn2c1c(=O)[nH]c1ccccc12	none (no result: Rango-impB inh, Mm-Cpn inhibitor, Rango release inh)
CN1CCc2nc(NC(=O)c3cccc(S(=O)(=O)N4CCc5ccccc54)c3)sc2C1	Rango-impB inh inconclusive, CCT modulator -35, Rango release inh inconclusive
O=C(Nc1nc2c(s1)CCCC2)c1cccc(S(=O)(=O)N2CCCc3ccccc32)c1	Mm-Cpn inhibitor inconclusive
CCN(CC(=O)Nc1ccc(NC(C)=O)cc1)CC(=O)Nc1cccc(Cl)c1	Rango-impB inh inconclusive, CCT modulator -71
COc1ccc(NC(=O)CSc2nccn2Cc2ccco2)cc1	none
Cc1ccc(S(=O)(=O)c2ccc(Cl)cc2)cc1S(=O)(=O)N(C)CC(=O)O	none
